Laboratory results from patent publication US20030073850A1, “4-Imidazole derivatives of benzyl and restricted benzyl sulfonamides, sulfamides, ureas, carbamates, and amides and their use” (priority 1998, published 2003).

Chains of the proteins cited; added tags and fusions are not shown.
UniProt P15823, whole entry: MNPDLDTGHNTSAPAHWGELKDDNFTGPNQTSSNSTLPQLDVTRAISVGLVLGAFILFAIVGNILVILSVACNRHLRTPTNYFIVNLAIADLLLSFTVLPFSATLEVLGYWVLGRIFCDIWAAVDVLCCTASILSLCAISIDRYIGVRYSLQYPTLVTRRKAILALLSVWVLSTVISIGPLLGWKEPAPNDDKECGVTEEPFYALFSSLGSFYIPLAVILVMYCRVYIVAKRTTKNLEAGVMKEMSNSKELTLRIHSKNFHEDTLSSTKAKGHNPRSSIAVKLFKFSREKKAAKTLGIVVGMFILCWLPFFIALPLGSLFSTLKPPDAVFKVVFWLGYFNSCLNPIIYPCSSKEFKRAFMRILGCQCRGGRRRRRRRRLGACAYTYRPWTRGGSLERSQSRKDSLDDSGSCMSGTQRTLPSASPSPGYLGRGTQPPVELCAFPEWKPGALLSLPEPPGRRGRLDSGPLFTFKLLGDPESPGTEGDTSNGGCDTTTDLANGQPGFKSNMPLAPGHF
UniProt P18841, whole entry: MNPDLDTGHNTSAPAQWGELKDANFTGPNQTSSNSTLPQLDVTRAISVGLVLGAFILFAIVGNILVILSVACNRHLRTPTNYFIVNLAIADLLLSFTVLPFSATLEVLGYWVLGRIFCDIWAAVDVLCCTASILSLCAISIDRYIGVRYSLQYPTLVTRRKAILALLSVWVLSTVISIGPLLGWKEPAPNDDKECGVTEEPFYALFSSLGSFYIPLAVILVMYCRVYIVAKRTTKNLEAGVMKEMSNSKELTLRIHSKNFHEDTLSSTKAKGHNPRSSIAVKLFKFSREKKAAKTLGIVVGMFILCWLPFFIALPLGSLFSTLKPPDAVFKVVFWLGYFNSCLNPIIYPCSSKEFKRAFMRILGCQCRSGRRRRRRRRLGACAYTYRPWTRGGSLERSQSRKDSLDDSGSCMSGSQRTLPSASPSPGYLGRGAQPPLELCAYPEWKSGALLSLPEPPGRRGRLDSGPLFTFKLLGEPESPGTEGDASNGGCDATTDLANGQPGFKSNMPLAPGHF
UniProt P23944, whole entry: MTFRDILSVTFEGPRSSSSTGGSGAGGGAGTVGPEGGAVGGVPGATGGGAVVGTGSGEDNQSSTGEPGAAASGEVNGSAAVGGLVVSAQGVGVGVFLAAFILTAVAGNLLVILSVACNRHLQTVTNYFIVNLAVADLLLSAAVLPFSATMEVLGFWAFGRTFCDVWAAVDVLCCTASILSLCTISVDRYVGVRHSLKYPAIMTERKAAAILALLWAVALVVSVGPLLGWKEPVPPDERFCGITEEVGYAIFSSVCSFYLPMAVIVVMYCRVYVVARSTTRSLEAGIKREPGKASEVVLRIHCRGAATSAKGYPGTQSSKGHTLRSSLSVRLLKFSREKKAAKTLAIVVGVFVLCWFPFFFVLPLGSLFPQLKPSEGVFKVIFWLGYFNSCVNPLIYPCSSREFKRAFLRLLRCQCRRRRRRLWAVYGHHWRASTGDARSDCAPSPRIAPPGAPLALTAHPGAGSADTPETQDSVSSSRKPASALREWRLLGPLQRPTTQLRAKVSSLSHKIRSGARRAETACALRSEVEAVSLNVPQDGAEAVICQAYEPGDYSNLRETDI

Key:
[1] = molecular target: T1, α1B (rat spleen) (Rattus norvegicus, UniProt P15823); assay: Agonist tissue response, contraction of rat spleen; assay type: biochemical; settings: read-out: Agonist Tissue Response (pD2) α1B (rat spleen) (converted)
T1 construct: α1B (rat spleen) and α1D (rat aorta) receptors; from tissue; host or cells: rat spleen

[2] = molecular target: T2, α1b (hamster receptor expressed in mouse fibroblasts) (Mesocricetus auratus, UniProt P18841); assay: Radioligand binding, [3H]-prazosin, α1b
T2 construct: expressed in transfected cells; host or cells: mouse fibroblasts
Description: (§1) For purposes of discussing a, adrenoceptor subtypes, the IUPHAR convention of using lower case letters to define molecular clones and upper case letters to indicate pharmacologically defined adrenoceptors has been followed. Compounds of formula I were evaluated in radioligand binding assays specific for α1A (rat submaxillary gland), α1b (hamster receptor expressed in mouse fibroblasts) and α1d (rat receptor expressed in mouse fibroblasts) using [^3H]-prazosin as the radioligand as described in Knepper, et al. J. Pharm.

[3] = molecular target: T3, α1A (rat submaxillary gland) (Rattus norvegicus, UniProt P43140); assay: Radioligand binding, [3H]-prazosin, α1A
T3 construct: α1A (rat submaxillary gland); from tissue; host or cells: rat submaxillary gland
T3 sequence (P43140 1-466): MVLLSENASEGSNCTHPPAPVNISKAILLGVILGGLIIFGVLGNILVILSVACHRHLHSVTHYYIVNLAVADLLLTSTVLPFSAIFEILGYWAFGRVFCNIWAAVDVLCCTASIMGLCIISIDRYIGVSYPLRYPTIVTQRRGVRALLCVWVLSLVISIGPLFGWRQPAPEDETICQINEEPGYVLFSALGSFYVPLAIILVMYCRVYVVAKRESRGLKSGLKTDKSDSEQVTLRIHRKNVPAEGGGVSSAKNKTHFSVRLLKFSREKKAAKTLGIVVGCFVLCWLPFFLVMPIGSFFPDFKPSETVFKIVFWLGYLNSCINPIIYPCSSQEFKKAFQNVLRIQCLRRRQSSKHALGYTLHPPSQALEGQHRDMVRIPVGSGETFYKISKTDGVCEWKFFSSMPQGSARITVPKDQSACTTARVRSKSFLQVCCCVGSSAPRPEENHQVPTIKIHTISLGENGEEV
Description: as §1

[4] = molecular target: T4, α1d (rat receptor expressed in mouse fibroblasts) (Rattus norvegicus, UniProt P23944); assay: Radioligand binding, [3H]-prazosin, α1d
T4 construct: expressed in transfected cells; host or cells: mouse fibroblasts
Description: as §1

[5] = test system: anesthetized dogs; assay: Intraurethral pressure (IUP) in anesthetized dogs; assay type: in vivo, dog; settings: iv
Description: Female Beagle dogs (Marshall Farms, North Rose, N.Y.) greater that 2 years of age and weighing between 12 and 15 kg were used in these studies. At least 2 weeks prior to any agonist dosing, dogs were instrumented for the chronic measurement of arterial blood pressure by implanting a telemetry transducer/transmitter (TA11PA-C40, Data Sciences International, St. Paul, Minn.) into a carotid artery.
On the test day, dogs fasted since the previous afternoon were pre-anesthetized with thiopental sodium 15 mg/kg i.v. (Pentothal™, Abbott) and intubated. Anesthesia was maintained by allowing the dog to spontaneously breathe a mixture of isoflurane (2.5 to 3 volume %) and oxygen delivered by a Narkomed Standard anesthesia system (North American Drager, Telford, Pa.). […]
Dogs with chronic telemetry implants anesthetized as described above were placed in dorsal recumbency and a balloon catheter was inserted into the urethral orifice and advanced approximately 15 cm until the tip was well inside the bladder. […] Increasing iv doses of test agonists were administered and the maximum effect of each dose on IUP was recorded. […]
From the resulting dose response curve, an ED5 value, for the dose causing a maximum increase in IUP of 5 mm Hg, could be estimated. […] A selectivity ratio of MAP ED20 vs. IUP ED, was calculated.

| SMILES | EC50 [1] [µM] | pKi [2] | pKi [3] | pKi [4] | Mean Selectivity Ratio MAP ED20/IUP ED5 [5] |
| --- | --- | --- | --- | --- | --- |
| CS(=O)(=O)Nc1cccc2c1OCCC2c1c[nH]cn1.O=C(O)/C=C\C(=O)O (single isomer, unassigned; (+)) [Example 93, (+) N-[4-(1H-imidazol-4-yl)-3,4-dihydro-2H-chromen-8-yl]methanesulfonamide Maleate] | 26.3 | 5.00 | 6.70 |  |  |
| CC(=O)Nc1cccc2c1CCCC2c1c[nH]cn1.O=C(O)/C=C\C(=O)O (stereo not shown) [Example 16, N-[5,6,7,8-tetrahydro-5-(1H-imidazol-4-yl)-1-naphthalenyl]acetamide, Maleate] |  | 5.00 |  | 5.00 |  |
| CS(=O)(=O)Nc1cccc2c1CCC=C2c1c[nH]cn1.O=C(O)/C=C\C(=O)O [Example 47, N-[5-(1H-imidazol-4-yl)-7,8-dihydro-1-naphthalenyl]methanesulfonamide, Maleate] |  | 5.00 |  |  |  |
| C=C(c1cccc(NS(C)(=O)=O)c1)c1c[nH]cn1 [Example 92, N-{3-[1-(1H-imidazol-4-yl)vinyl]phenyl}methanesulfonamide] |  |  |  |  | 1.73 |

pKi: −log10 of the molar value.
